The source of these data is ChEMBL document CHEMBL4813984, “An original pronucleotide strategy for the simultaneous delivery of two bioactive drugs” (Eur J Med Chem, 2021).

Each structure is given as a SMILES string.

Data set [1] is described as follows: Stability of compound in human CEM-SS cell extract assessed as half life.
Data set [2] can be described thus: Stability of compound in RPMI 1640 culture medium containing 10% heat-inactivated fetal calf serum assessed as half life. To be noted: cattle.

As to `Cc1cn([C@H]2C[C@H](N=[N+]=[N-])[C@@H](COP(=O)(Nc3ccn([C@H]4CC[C@@H](CO)O4)c(=O)n3)OCCSC(=O)C(C)(C)C)O2)c(=O)[nH]c1=O` (some centres not stated), the values for the t1/2 in data set [1] and in data set [2] were 2.3 h and 165 h, respectively.
